One assay concerns GIST882 cell line. Put plainly: Combination dose-matrix cell viability (CellTiter Glo, Loewe model). Format: cell-based. To be noted: NEG085-MCC-DM1 in combination with the compound, 120 h. The method, then:
(§1) Relative inhibition of cell viability was calculated for every dose combination. Using either the Chalice software (Zalicus, Cambridge Mass.) or ComboExplorer application (Novartis, Basel CH), the response of the combination was compared to its single agents, against the widely used Loewe model for drug-with-itself dose-additivity (Lehar et al. Nat. Biotechnol. (2009) 27: 659-666; Zimmermann et al., Drug Discov. Today (2007) 12: 34-42). Excess inhibition compared to additivity can be plotted as a full dose-matrix chart to visualize the drug concentrations where synergies occur. Synergistic combinations produced regions of excess inhibition within the dose-matrix. […] “Additivity” was found when the combination generated the same inhibition of cell viability response when compared to the response with the single agent by itself “Synergy” was indicated when the inhibition of cell viability was greater than the response of the single agent compared with itself. Alternatively, “Additivity” was indicated with a Loewe score of less than 5, and “Synergy” was indicated by a Loewe score of greater than 5.
(§2) Cell viability was determined by measuring cellular ATP content using the CellTiter Glo luminescence assay (Promega, Madison Wis.). […] Luminescence values were used to calculate the inhibition of cell viability relative to DMSO-treated cells (0% inhibition).

For another assay, the system named is GIST430 cell line. The assay is described as above. The assay is classed as cell-based. As to conditions: NEG085-MCC-DM1 in combination with the compound, 120 h. The method, then:
as §1, §2

Structures are written as SMILES.

Regarding `Cc1ccc(NC(=O)c2ccc(CN3CCN(C)CC3)cc2)cc1Nc1nccc(-c2cccnc2)n1` [Imatinib], the GIST882 cell line result with GIST882 cell line is listed as “Additivity (“Additivity” was indicated with a Loewe score of less than 5)”. In the assay with GIST430 cell line, the GIST430 cell line entry was “Synergy (“Synergy” was indicated by a Loewe score of greater than 5)”.

The record behind these values is patent US20150320880A1, “ANTIBODY DRUG CONJUGATES” (NOVARTIS AG, priority 2013, published 2015).
